The numbers were not newly measured in patent EP4759820A1, “METHOD FOR PRODUCING PEPTIDE COMPOUND USING STAND-ALONE-TYPE CONDENSING AGENT” (CHUGAI SEIYAKU KABUSHIKI KAISHA, priority 2023, dated 2025), which cites them from elsewhere.

Only a part of the results on these compounds is given; other tests are left out.

For this data set the following is noted: representative additives; water as solvent, 25°C; literature reference given with each value.

A word on the pKa: it is the negative logarithm of the acid dissociation constant. Consider `O=[N+]([O-])C(=NO)[N+](=O)[O-]`, for which the pKa is 2.7. Regarding `On1ncnn1`, the pKa is 8.2.

Turning to Hydroxypicolinimidoyl cyanide, the pKa is 8.2. Regarding “N-Hyrdroxy-2-morpholino-2-oxoacetimidoyl cyanide”, the pKa is 6.1.
